Data taken from patent US7208517B1, “Endothelin antagonists” (Abbott Labortories, priority 1994, dated 2007).

The chains behind the UniProt entries cited, without tags or fusion partners. Residues count along the entry.
UniProt P25101, 21-427: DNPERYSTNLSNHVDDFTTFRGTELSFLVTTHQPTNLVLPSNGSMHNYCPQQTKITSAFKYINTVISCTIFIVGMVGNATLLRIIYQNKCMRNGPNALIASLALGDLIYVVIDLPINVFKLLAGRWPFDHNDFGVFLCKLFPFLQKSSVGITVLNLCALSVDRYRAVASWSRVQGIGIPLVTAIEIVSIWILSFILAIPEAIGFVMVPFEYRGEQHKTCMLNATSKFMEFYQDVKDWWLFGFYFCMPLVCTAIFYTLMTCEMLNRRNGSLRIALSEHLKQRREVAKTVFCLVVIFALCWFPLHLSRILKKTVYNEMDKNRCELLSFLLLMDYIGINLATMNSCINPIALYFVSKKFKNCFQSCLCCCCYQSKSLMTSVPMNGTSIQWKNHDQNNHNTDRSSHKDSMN

How the values were obtained:
human ETB receptor = biological target: T1, human ETB receptor (Homo sapiens, UniProt P24530); experiment: ETA/ETB selectivity: (125I)ET-3 competition binding, CHO cells transfected with human ETB receptor (hET-B); details: 0.1 nM (125I)ET-3
T1 construct: expressed in transfected cells; host or cells: CHO cells, permanently transfected
T1 sequence (P24530 27-442): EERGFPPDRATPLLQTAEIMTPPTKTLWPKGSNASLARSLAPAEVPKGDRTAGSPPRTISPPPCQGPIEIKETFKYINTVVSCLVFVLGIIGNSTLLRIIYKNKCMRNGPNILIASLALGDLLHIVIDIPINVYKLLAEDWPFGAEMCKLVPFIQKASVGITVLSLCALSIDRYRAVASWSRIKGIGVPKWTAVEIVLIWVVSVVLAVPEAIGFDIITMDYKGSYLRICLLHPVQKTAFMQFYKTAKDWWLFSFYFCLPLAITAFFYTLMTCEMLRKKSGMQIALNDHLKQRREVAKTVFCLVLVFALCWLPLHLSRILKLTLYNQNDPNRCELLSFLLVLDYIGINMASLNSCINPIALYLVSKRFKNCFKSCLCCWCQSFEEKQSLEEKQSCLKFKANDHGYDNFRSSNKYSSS
Procedure: MMQ cells, porcine cerebellar tissues (known to contain ETB receptors) and chinese hamster ovary cells (CHO) permanently transfected with the human ETA or ETB receptor were homogenized in 25 ml of 10 mM Hepes (pH 7.4) containing 0.25 M sucrose and a protease inhibitor [50 mM EDTA, 0.1 mM PMSF, 5 μg/ml Pepstatin A, and 0.025% Bacitracin] using a micro ultrasonic cell disrupter. The mixture was centrifuged at 1000×g for 10 min. The supernatant was collected and centrifuged at 60,000×g for 60 min. The precipitate was resuspended in 20 mM Tris, pH 7.4 containing protease inhibitor and centrifuged again. The final membrane pellet was resuspended in 20 mM Tris, pH 7.4 containing protease inhibitors and stored at −80° C. until used. Protein content was determined by the Bio-Rad dye-binding protein assay.
Binding assays were performed in 96-well microtiter plates pretreated with 0.1% BSA. Membranes prepared from cells were diluted 100 fold in Buffer B (20 mM Tris, 100 mM NaCl, 10 mM MgCl2, pH 7.4, with 0.2% BSA, 0.1 mM PMSF, 5 μg/mL Pepstatin A, 0.025% bacitracin, and 50 mM EDTA) to a final concentration of 0.2 mg/mL of protein. […] Nonspecific binding was determined in the presence of 1 μM ET-1. IC50 values are calculated using an average of at least two separate determinations.

human ETA receptor = biological target: T2, human ETA receptor (Homo sapiens, UniProt P25101); experiment: ETA/ETB selectivity: (125I)ET-1 competition binding, CHO cells transfected with human ETA receptor (hET-A); details: 0.1 nM (125I)ET-1
T2 construct: expressed in transfected cells; host or cells: CHO cells, permanently transfected
Procedure: The mixture was centrifuged at 1000×g for 10 min. The supernatant was collected and centrifuged at 60,000×g for 60 min. The precipitate was resuspended in 20 mM Tris, pH 7.4 containing protease inhibitor and centrifuged again. The final membrane pellet was resuspended in 20 mM Tris, pH 7.4 containing protease inhibitors and stored at −80° C. until used. Protein content was determined by the Bio-Rad dye-binding protein assay.
Binding assays were performed in 96-well microtiter plates pretreated with 0.1% BSA. […] After incubation, unbound ligands were separated from bound ligands by a vacuum filtration method using glass-fiber filter strips in PHD cell harvesters (Cambridge Technology, Inc., MA), washing the filter strips three times with saline (1 mL). Nonspecific binding was determined in the presence of 1 μM ET-1. IC50 values are calculated using an average of at least two separate determinations.

| SMILES | IC50 (human ETB receptor) | IC50 (human ETA receptor) |
| --- | --- | --- |
| CCCCN(CCCC)C(=O)CN1CC(c2cc(OC)c3c(c2)OCO3)C(C(=O)O)C1CC(C)(C)CCC (stereo not shown) [compound 514] | 9.8 µM | 0.00036 µM |
| CCCCN(CCCC)C(=O)CN1C[C@H](c2cc(OC)c3c(c2)OCO3)[C@@H](C(=O)O)[C@@H]1CC(C)(C)CCC [compound 536] | 52 µM | 0.00092 µM |
